Measurements from patent US9018162B2, “Methods for rapidly treating severe hypoglycemia” (Xeris Pharmaceuticals, Inc., priority 2013, dated 2015).

Assay: Solubility of freeze-dried glucagon (citrate, pH memory 2.0/3.0) on reconstitution: visual, A630, RP-HPLC
Settings: pH memory 3.0, in H2O

concentration at which complete reconstitution was achieved: 5000 µg/mL
Structure (SMILES): CSCC[C@H](NC(=O)[C@H](CC(C)C)NC(=O)[C@H](Cc1c[nH]c2ccccc12)NC(=O)[C@H](CCC(N)=O)NC(=O)[C@@H](NC(=O)[C@H](Cc1ccccc1)NC(=O)[C@H](CC(=O)O)NC(=O)[C@H](CCC(N)=O)NC(=O)[C@H](C)NC(=O)[C@H](CCCN=C(N)N)NC(=O)[C@H](CCCN=C(N)N)NC(=O)[C@H](CO)NC(=O)[C@H](CC(=O)O)NC(=O)[C@H](CC(C)C)NC(=O)[C@H](Cc1ccc(O)cc1)NC(=O)[C@H](CCCCN)NC(=O)[C@H](CO)NC(=O)[C@H](Cc1ccc(O)cc1)NC(=O)[C@H](CC(=O)O)NC(=O)[C@H](CO)NC(=O)[C@@H](NC(=O)[C@H](Cc1ccccc1)NC(=O)[C@@H](NC(=O)CNC(=O)[C@H](CCC(N)=O)NC(=O)[C@H](CO)NC(=O)[C@@H](N)Cc1c[nH]cn1)[C@@H](C)O)[C@@H](C)O)C(C)C)C(=O)N[C@@H](CC(N)=O)C(=O)N[C@H](C(=O)O)[C@@H](C)O [glucagon]
